Source: PMC4650837

Target: N171-40Q mutant huntingtin protein (UniProt P42858)
Assay: trapping of a disulfide-linked heterodimer, non-reducing SDS-PAGE and Western blot; cell-free; purified proteins in 50 mM Tris (pH 7.0), 150 mM NaCl incubated at room temperature for one hour, then 50 mM N-ethylmaleimide to block free thiols; reducing or non-reducing SDS-PAGE

stoichiometry N: 2
Substance: N171-40Q mutant huntingtin protein (from UniProt P42858 1-171) (domain or fragment)
